Assays:
Kuramochi cells RB-WT = assay: IncuCyte Kuramochi cell proliferation assay, RB-WT; conditions: read-out: IncuCyte - Kuramochi RB-WT: IC50, 72 hours, cell count
Description: (§1) IncuCyte® assay was used to measure the effect of disclosed compounds on cell proliferation. Fluorescent microscopy images of cells were taken immediately after compound treatment and 72 hours later. Image analysis software was used to obtain cell counts as a function of compound concentration. Kuramochi cells labeled with mApple-H2B were seeded on 384-well assay-ready plates. Plates were placed in an IncuCyte® (Sartorius) and scanned at 0 and 72 hours. IncuCyte® software was used to count the number of fluorescent nuclei in each well. The fold change in cell count from 0 to 72 hours in wells treated with increasing compounds concentrations (10 pts, 1/2 log dilution, 20 µM top concentration) was normalized to DMSO control wells. The normalized cell counts were fit with dose response curves and a GI50 was calculated.

CDK2/Cyclin E1 [1] = biological target: T1, CDK2/Cyclin E1 (Homo sapiens, UniProt P24941); assay: Caliper LabChip EZ Reader mobility shift assay; conditions: read-out: Caliper Assay (CDK2/CCNE1): IC50; 2.5 nM CDK2/Cyclin E1(14-475), 100 μM ATP, 30 min preincubation
Description: Inhibition of CDK2/Cyclin E1 activity in the presence of compounds of the present disclosure was evaluated using a Caliper LabChip® EZ Reader mobility shift assay. In the assay, activated CDK2/Cyclin E1 catalyzes the phosphorylation of a fluorescently tagged peptide 5-FAM-QSPKKG-CONH2 (PerkinElmer, FL Peptide 18) which induces a difference in capillary electrophoresis mobility. The peptide substrate and product were measured, and the conversion ratio was used to determine the inhibition (as % activity and IC50 values) of CDK2/Cyclin E1. Reactions contained 50 mM HEPES pH 7.5, 10 mM MgCl2, 1 mM EDTA, 2 mM DTT, 0.01% Brij35, 0.5 mg/mL BSA, 0.1% DMSO, 2.5 nM CDK2/Cyclin E1(14-475), 100 μM ATP, and 1.5 μM fluorescent peptide substrate.
Dose titrations of inhibitors in 100% DMSO were combined with 3.25 nM CDK2/Cyclin E1(14-475) and 130 μM of ATP in reaction buffer. The mixtures were incubated for 30 minutes before the addition of fluorescent peptide substrate to initiate the kinase reaction. The final conditions were 2.5 nM CDK2/Cyclin E1(14-475), 100 μM ATP, and 1.5 μM fluorescent peptide. The reactions were stopped after 100 minutes with the addition of EDTA (6 mM final EDTA concentration). The stopped reactions were analyzed on a Caliper LabChip® EZ Reader 11. […]

CDK2/Cyclin E1 [2] = biological target: T1, CDK2/Cyclin E1; assay: ADP-Glo Luminescent Kinase Assay (CDK2/E1-37C); conditions: read-out: ADPGLO (CDK2/E1-37C): IC50; 0.18 nM CDK2/Cyclin E1, 100 μM ATP, Histone H1, 37° C.
Description: Inhibition of CDK2/Cyclin E1 activity by the presence of small molecules was evaluated using ADP-Glo Luminescent Kinase Assay (Promega). Activated CDK2/Cyclin E1 was incubated with its substrate Histone H1 (SignalChem H10-54N) in the kinase reaction buffer (100 μM ATP, 50 mM HEPES pH 7.5, 10 mM MgCl2, 1 mM EDTA, 2 mM DTT, 0.01% Brij35, 0.5 mg/mL BSA). Luminescence was recorded with an Envision plate reader (PerkinElmer).
Dose titrations of inhibitors in 100% DMSO were combined with 0.36 nM CDK2/Cyclin E1 in reaction buffer. The mixtures were incubated for 60 minutes at 37° C. before the addition of ATP and Histone H1 substrate to initiate the kinase reaction. The final conditions were 0.18 nM CDK2/Cyclin E1, 100 μM ATP, and […] Histone H1. The reactions were incubated at 37° C. for 90 minutes before being stopped with the addition of ADP-Glo reagent. This mixture was incubated at room temperature for 60 minutes before Kinase Detection Solution is added to generate luminescence. The stopped reactions were analyzed on an Envision plate reader. The conversion ratios were normalized to yield % activity, plotted against compound concentration, and fit to a four-parameter equation to determine the IC50 for each compound.

Kuramochi cells RB-KO = assay: IncuCyte Kuramochi cell proliferation assay, RB-KO; conditions: read-out: IncuCyte Kuramochi RB-KO: IC50 - Batch Mean, 72 hours, cell count
Description: as §1

SMILES | IC50 (Kuramochi cells RB-WT) | IC50 (CDK2/Cyclin E1 [1]) | IC50 (CDK2/Cyclin E1 [2]) | IC50 (Kuramochi cells RB-KO)
CC1(C)C[C@@H]1C(=O)N1CC2(CN(C(=O)c3cncs3)CC2CNCc2cccc(C3CCOCC3)n2)C1 (some centres unmarked) | > 10 µM | > 10 µM |  | 
CC(C)(C(=O)N1CC2(CN(C(=O)c3cnn(Cc4ccc(F)cc4)c3)C[C@H]2COCc2cccc(C3CCC(F)(F)CC3)c2C(=O)O)C1)C(F)(F)F [Compound I-101, (S)-2-(4,4-difluorocyclohexyl)-6-(((6-(1-(4-fluorobenzyl)-1H-pyrazole-4-carbonyl)-2-(3,3,3-trifluoro-2,2-dimethylpropanoyl)-2,6-diazaspiro[3.4]octan-8-yl)methoxy)methyl)benzoic acid] | > 10 µM |  | < 0.5 µM | > 10 µM

From patent publication US20260034123A1 (Cedilla Therapeutics, Inc., priority 2022, published 2026)
